Values of other authors as cited in patent publication US20110152382A1, “Composition of molecular elements for phosphorylase kinase inhibition” (priority 2009, published 2011).

How the values were obtained:
[1] = metabolites of oral curcumin

For curcumin glucuronate, the water solubility is listed as “water soluble” and the “absorption of metabolites into the blood stream” value [1] is listed as “absorbed into the blood stream”.
